Assay: Whole blood pharmacokinetics, LC-MS/MS, noncompartmental analysis
Type: in vivo, patients
Conditions: human, iv, 12.5 mg

CO[C@H]1C[C@@H]2CC[C@@H](C)[C@@](O)(O2)C(=O)C(=O)N2CCCC[C@H]2C(=O)O[C@H]([C@H](C)C[C@@H]2CC[C@@H](OP(C)(C)=O)[C@H](OC)C2)CC(=O)[C@H](C)/C=C(\C)[C@@H](O)[C@@H](OC)C(=O)[C@H](C)C[C@H](C)/C=C/C=C/C=C/1C [deforolimus]
half-life: 2820 min

From article PMC3147153 (Clinical cancer research : an official journal of the …, 2009)
